## AlphaSeq binding of Ab-95 light chain variants to a spike HR2 peptide

From the AlphaSeq antibody data of Engelhart et al. 2022 (doi:10.1038/s41597-022-01779-4), copy in the FLAb collection.

Target: peptide PDVDLGDISGINAS, taken from heptad repeat 2 (HR2) of SARS-CoV-2 spike.

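The starting antibody came from a phage panning campaign against this peptide. The library (AAYL52) carries one to three amino acid substitutions per variant, with no insertions or deletions. In AlphaSeq, yeast of one mating type display the scFv and yeast of the other type display the target. Pairs that bind mate more often; barcode pairs of the diploids are counted by sequencing. The ratio of observed to expected reads was calibrated, replicate by replicate, on BCL2-family standards whose Kd was known from biolayer interferometry. Each pool was mated in three replicate cultures.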

The variants keep the heavy chain, the linker and the frameworks of Ab-95 (scFv order VH, three GGGGS repeats, VL).
VH: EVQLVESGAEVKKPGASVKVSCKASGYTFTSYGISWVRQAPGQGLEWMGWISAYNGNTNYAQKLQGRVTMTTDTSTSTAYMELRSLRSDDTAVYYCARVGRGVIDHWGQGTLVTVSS
VL: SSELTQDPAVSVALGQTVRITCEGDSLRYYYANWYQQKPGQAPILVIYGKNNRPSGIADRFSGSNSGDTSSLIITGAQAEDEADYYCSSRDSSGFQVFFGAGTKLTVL

Each variant is given by its three light chain CDRs, as the data file delimits them; those of the parent are EGDSLRYYYAN, GKNNRPS, SSRDSSGFQVF. The read-out is the apparent dissociation constant on a log10 scale (nM): the lower, the stronger. Replicates are averaged; those with no signal do not enter the mean. Where no diploid with the target was found in any replicate, the entry reads "nd": below detection, most likely a poor binder, though not proof of it. In this assay the parent's reference entry averaged 2.31; its copy inside this library read 2.25. Three control strains display no target. For library AAYL52, 28% of the pairings with them gave a signal, with a median of 3.91 and one signal in twenty below 2.90, so weak values seen in few replicates may be background.

With EGDSLRYYYAN | DYNLRPS | SSRDSSGFQVF the result was 3.51 (3 of 3 replicates).
With EGDSLRAYYAN | GKNNRPS | SNRDSSGFQVP the result was 4.55 (1 of 3 replicates).
With EGRSLRMYYAN | EKNNRPS | SSRDSSGFQVF the result was 4.67 (2 of 3 replicates).
With EGDSLRYYYAN | GKNYRPS | SSRDYSGFQVA the result was 3.15 (3 of 3 replicates).
With EGESLRYYYAN | CKNYRPS | SSRDSSGFQVF the result was 5.32 (2 of 3 replicates).
With EGDSLREYYAN | GKNYRPS | SSRDSSWFQVF the result was 2.83 (3 of 3 replicates).
With EGDSLDYYYAN | GKNNRPS | KSRDSSGFQVY the result was 4.55 (1 of 3 replicates).
With EGDSLRYYYAN | GKNNYPS | SSRDYSGFKVF the result was 4.08 (1 of 3 replicates).
With EGASLRYYHAN | GKNNRPS | ESRDSSGFQVF the result was 1.62 (3 of 3 replicates).
With EGDSLRYYYAN | GKNNRPS | SGRDSMGFHVF the result was 3.03 (3 of 3 replicates).
With EGDSLRYYNAN | GKNNRWS | ASRDSSGFQVF the result was 2.09 (3 of 3 replicates).
With EGDSLRYYYAN | GKNNRPS | KSRDSSGFIYF the result was 2.04 (3 of 3 replicates).
With ECDSLRYYYAN | GKNNRGS | SSRDSMGFQVF the result was 3.86 (1 of 3 replicates).
With EGDWLRYYYNN | GKNNRPS | SSRDSSGFQVL the result was 3.26 (3 of 3 replicates).
With FGDSLRYYYAN | GKNNRPS | SFRDSSGFQIF the result was 3.30 (3 of 3 replicates).
With EGDNLRYYYAN | GKNNRPR | SSRDSVGFQVF the result was 4.97 (2 of 3 replicates).
With EGDSLRYYYAN | GKNFRCS | ESRDSSGFQVF the result was 4.54 (1 of 3 replicates).
With EVDSLRYYFAN | GKNNRPS | SSRGSSGFQVF the result was 3.38 (3 of 3 replicates).
With IGKSLRYYYMN | GKNNRPS | SSRDSSGFQVF the result was 3.37 (3 of 3 replicates).
With EGDSLRWYYAN | SKNNRPS | SSRQSSGFQVF the result was 5.12 (1 of 3 replicates).
With EFDSLRYYYWN | GKNNRPS | SSRDSSGFQVF the result was 4.71 (1 of 3 replicates).
With EGDSLAYYYAN | GKNNRPS | RSRDSSGFQSF the result was 3.92 (2 of 3 replicates).

The remaining entries, values ahead:

4.05 (1 of 3 replicates): EDDSLRYYYVN | GKNNRPS | SSRDSSGFQVG.
2.19 (3 of 3 replicates): EGNSLEYYYAN | GKNNRPS | SSRDSSGFRVF.
3.76 (3 of 3 replicates): RGDSLRYYYAN | TKNNRPS | SSRDSSGFQVF.
nd (0 of 3 replicates): EGDSLRYWYAN | GKNNRPS | SSRDSSAFQVW.
2.65 (3 of 3 replicates): EGDYLRYYYAN | GKNNRPS | SSRDASGFQVS.
nd (0 of 3 replicates): EDDSLRYYYAN | GKNNRPS | HSRDSAGFQVF.
3.68 (3 of 3 replicates): EGPSLRYYYAN | GKNNNPS | SSRDSSGFQVF.
nd (0 of 3 replicates): EGDSLRCYYAN | CKNNRPS | SSVDSSGFQVF.
4.38 (2 of 3 replicates): EGDSLRYYYTN | AKNNRPS | SSRDSSGFQVW.
3.39 (1 of 3 replicates): ESHSLRYYYAN | GKNNVPS | SSRDSSGFQVF.
3.52 (1 of 3 replicates): EGDSLRYYYAN | GKNNRPS | SSVDSSWFQVF.
2.96 (3 of 3 replicates): EFDSLRYYYAN | GMNNRPS | SSRDSSGQQVF.
2.57 (3 of 3 replicates): EGDSLRYYDAN | HKNNRPS | SSRDSSGDQVF.
2.53 (3 of 3 replicates): EGDSDRYMYFN | GKNNRPS | SSRDSSGFQVF.
2.76 (1 of 3 replicates): EGDSLRYYYAN | GKNNRMS | LSRDSSGFQDF.
2.23 (3 of 3 replicates): EGDSLRYYYAN | GKNNRPS | SSRDAYNFQVF.
4.83 (2 of 3 replicates): EGDTLRYYYAN | GKNNRPS | SSRDSSGFEWF.
3.37 (3 of 3 replicates): EGDSHRYYYAN | GKNNKPS | STRDSSGFQVF.
3.21 (1 of 3 replicates): CGDSLRYYYAN | GRNNRPS | SSRDSFGFQVF.
2.70 (3 of 3 replicates): EGDSLRYYYAN | GKNNRSS | SSRDSSGFLVM.
nd (0 of 3 replicates): EGDRLRYYYAN | GKNNCPS | SSRDSSGFQYF.
4.27 (2 of 3 replicates): EGDSLRYYYAN | GKNNRPA | HSRDSSGFQVA.

The first 4 variants above that were never detected:

With EGDSLRYWYAN | GKNNRPS | SSRDSSAFQVW the result was nd (0 of 3 replicates).
With EDDSLRYYYAN | GKNNRPS | HSRDSAGFQVF the result was nd (0 of 3 replicates).
With EGDSLRCYYAN | CKNNRPS | SSVDSSGFQVF the result was nd (0 of 3 replicates).
With EGDRLRYYYAN | GKNNCPS | SSRDSSGFQYF the result was nd (0 of 3 replicates).